What follows are molecules tested against Human plasma kallikrein (Homo sapiens (Human), UniProt P03952) (assay: In vitro plasma kallikrein inhibition assay (chromogenic substrate D-Pro-Phe-Arg-pNa, absorbance at 405 nm, IC50 determination)). Details: read-out: KLKB1 pIC50 (converted).
Format: biochemical
Method: In Vitro Plasma Kallikrein Inhibition Assay
The chromogenic substrate D-Pro-Phe-Arg-pNa, 2HCl (BIOPHEN CS-31(02) from Hyphen BioMed, Neuville-Sur-oise, France) was dissolved in 5 mL deionized water and stored at 4° C. […] All other chemicals were of analytical grade.
A stock solution of 7 μM in 50% glycerol was stored at −20° C.
Enzyme reactions were conducted in “assay buffer” comprised of 20 mM HEPES at pH 7.4, 150 mM NaCl, 0.1% PEG-8000 and 0.01% Triton X-100.
Both enzyme and substrate were diluted in assay buffer.
Plate measurements were conducted using a SPECTROStar Nano reader (BMG Labtech, San Francisco, Calif., USA). […] We used discrete wavelength, precise, kinetic reads of 15 cycles with a 60 sec cycle time.
Determination of IC50 values
The test compound was dissolved in 100% DMSO. The compounds were serially diluted in DMSO in a 7 point dose response. For the assays, 66.5 μL of protease solution (protease in assay buffer) was added per well followed by the addition of 8.5 μL of compound in 100% DMSO. […] After 30 min. incubation at room temperature on an orbital shaker, the reactions were started by the addition of 10 μL substrate solution (in assay buffer, final assay concentration was 600 uM). After the addition of the substrate solution the final DMSO concentration was 10%. The plate was placed again on the shaker for 5 sec, spun at 2000 rpm for 5 sec and read on the spectrophotometer. […] The IC50 value was calculated from the plot of rate vs. inhibitor concentration by a 4 parameter logistic equation: y=A+((B−A)/([…]))
where y is the rate at the inhibitor concentration, x. A is the minimum y value at the highest inhibitor concentration and B is the y value in the absence of inhibitor, C is the IC50 value and D is the slope factor. The curve fitting was conducted with the non-linear regression routine of the analysis software XLfit (IDBS, version 5.3.1).

Sequences of proteins named here, by UniProt entry; tags and fusion partners are left off. Residues count along the entry.
UniProt P03952, 20-390 partner: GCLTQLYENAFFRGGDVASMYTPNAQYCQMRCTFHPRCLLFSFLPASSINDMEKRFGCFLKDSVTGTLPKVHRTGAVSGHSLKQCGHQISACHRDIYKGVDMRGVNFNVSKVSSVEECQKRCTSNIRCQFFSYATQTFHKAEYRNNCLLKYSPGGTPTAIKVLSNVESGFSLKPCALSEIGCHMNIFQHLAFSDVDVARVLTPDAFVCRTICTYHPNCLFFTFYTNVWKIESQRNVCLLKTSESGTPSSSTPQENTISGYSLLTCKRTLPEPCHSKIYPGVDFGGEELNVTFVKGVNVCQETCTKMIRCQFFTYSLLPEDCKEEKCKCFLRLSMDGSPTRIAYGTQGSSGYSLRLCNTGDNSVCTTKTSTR
UniProt P03952, 391-638: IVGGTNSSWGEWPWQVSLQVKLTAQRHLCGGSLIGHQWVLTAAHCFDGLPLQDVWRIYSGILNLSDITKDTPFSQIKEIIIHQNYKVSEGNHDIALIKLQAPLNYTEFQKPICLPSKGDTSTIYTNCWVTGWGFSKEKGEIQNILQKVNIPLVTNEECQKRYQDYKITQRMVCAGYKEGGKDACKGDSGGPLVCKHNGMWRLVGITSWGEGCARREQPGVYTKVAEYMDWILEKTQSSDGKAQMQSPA

IC50 [µM]	Compound
21.4	Cc1nc(N)nc(C)c1CNC(=O)c1ccc2c(c1)[C@@H]1O[C@H]2c2ccc(-c3ccc(F)cc3F)cc21 (single isomer, unassigned) [Example 182]
10	Nc1cccc(NC(=O)c2ccc3c(c2)[C@@H]2O[C@H]3c3ccc(-c4ccc(F)cc4F)cc32)c1 (single isomer, unassigned) [Example 287]
100	Nc1ccc(NC(=O)c2ccc3c(c2)[C@@H]2O[C@H]3c3ccc(-c4ccc(F)cc4F)cc32)cc1 (single isomer, unassigned) [Example 288]
0.001	N=C(N)c1ccc(CNC(=O)c2ccc3c(c2)[C@@H]2O[C@H]3c3ccc(-c4ccc(F)cc4F)cc32)c(F)c1 (single isomer, unassigned) [Example 291]
10	Nc1ccc(NC(=O)c2ccc3c(c2)[C@@H]2O[C@H]3c3ccc(-c4ccc(F)cc4F)cc32)cn1 (single isomer, unassigned) [Example 304]
100	Nc1ccnc(NC(=O)c2ccc3c(c2)[C@@H]2O[C@H]3c3ccc(-c4ccc(F)cc4F)cc32)c1 (single isomer, unassigned) [Example 309]
33.9	O=C(NC1CCNCC1)c1ccc2c(c1)[C@@H]1O[C@H]2c2ccc(-c3ccc(F)cc3F)cc21 (single isomer, unassigned) [Example 345]

More lines, now with the values behind:

Compound	IC50 [µM]
Cc1cc(N)nc(C)c1CNC(=O)c1ccc2c(c1)C1OC2c2cc(Nc3ccn(C)n3)ccc21 (racemic) [Example 52, (1R,8S)-12-cyclopropyl-N-{[5-(N′-methoxycarbamimidoyl)pyridin-2-yl]-methyl}-15-oxatetracyclo[6.6.1.0^2,7.0^9,14]pentadeca-2,4,6,9,11,13-hexaene-4-carboxamide]	1.51
Cc1cc2c(c(Cl)c1CNC(=O)c1ccc3c(c1)C1OC3c3ccc(-c4ccc(F)cc4F)cc31)CNC2 (racemic) [Example 131, (±)-N[(4-chloro-6-methyl-2,3-dihydro-1H-isoindol-5-yl)methyl]-12-(2,4-difluoropheny])-15-oxatetracyclo [6.6.1.0^2,^7.0^9,1^4] pentadeca-2,4,6,9,11,13-hexaene-4-carboxamide]	7.41
Cc1cc(N)nc(C)c1CNC(=O)c1ccc2c(c1)C1OC2c2cc(Br)c(Br)cc21 (racemic) [Example 301, N-[(6-amino-2,4-dimethylpyridin-3-yl)methyl]-11,12-dibromo-15-oxatetracyclo [6.6.1.0^2,^7.0^9,1^4]-pentadeca-2,4,6,9,11,13-hexaene-4-carboxamide]	0.389
N=C(N)c1cccc(CNC(=O)c2ccc3c(c2)[C@@H]2O[C@H]3c3ccc(-c4ccccc4F)cc32)c1 (single isomer, unassigned) [Example 200]	1.23
Cc1cc(N)nc(C)c1CNC(=O)c1ccc2c(c1)[C@@H]1O[C@H]2c2ccc(N(C)C(=O)c3ccccc3)cc21 (single isomer, unassigned) [Example 243]	1.23
N=C(N)c1cc(F)c(CNC(=O)c2ccc3c(c2)[C@@H]2O[C@H]3c3ccc(-n4nccn4)cc32)c(F)c1 (single isomer, unassigned) [Example 297]	0.0302
Cc1cc2ccnc(N)c2cc1CNC(=O)c1ccc2c(c1)[C@@H]1O[C@H]2c2ccc(-c3ccccc3F)cc21 (single isomer, unassigned) [Example 300]	3.16
O=C(NCC1CCNCC1)c1ccc2c(c1)[C@@H]1O[C@H]2c2ccc(-c3ccc(F)cc3F)cc21 (single isomer, unassigned) [Example 313]	47.9

Reference: patent US10144746B2 (GLOBAL BLOOD THERAPEUTICS, INC., priority 2015, dated 2018)
